Publication PMC12836348, “Alanine Mutagenesis Identifies Specific Amino Acids of Nemertide Alpha‑1 Activity and Its Binding to Target Receptors” (Journal of Natural Products, 2025)
“Also recorded” adds a separate entry of the source.

The chains behind the UniProt entries cited, without tags or fusion partners.
UniProt P15390, whole entry: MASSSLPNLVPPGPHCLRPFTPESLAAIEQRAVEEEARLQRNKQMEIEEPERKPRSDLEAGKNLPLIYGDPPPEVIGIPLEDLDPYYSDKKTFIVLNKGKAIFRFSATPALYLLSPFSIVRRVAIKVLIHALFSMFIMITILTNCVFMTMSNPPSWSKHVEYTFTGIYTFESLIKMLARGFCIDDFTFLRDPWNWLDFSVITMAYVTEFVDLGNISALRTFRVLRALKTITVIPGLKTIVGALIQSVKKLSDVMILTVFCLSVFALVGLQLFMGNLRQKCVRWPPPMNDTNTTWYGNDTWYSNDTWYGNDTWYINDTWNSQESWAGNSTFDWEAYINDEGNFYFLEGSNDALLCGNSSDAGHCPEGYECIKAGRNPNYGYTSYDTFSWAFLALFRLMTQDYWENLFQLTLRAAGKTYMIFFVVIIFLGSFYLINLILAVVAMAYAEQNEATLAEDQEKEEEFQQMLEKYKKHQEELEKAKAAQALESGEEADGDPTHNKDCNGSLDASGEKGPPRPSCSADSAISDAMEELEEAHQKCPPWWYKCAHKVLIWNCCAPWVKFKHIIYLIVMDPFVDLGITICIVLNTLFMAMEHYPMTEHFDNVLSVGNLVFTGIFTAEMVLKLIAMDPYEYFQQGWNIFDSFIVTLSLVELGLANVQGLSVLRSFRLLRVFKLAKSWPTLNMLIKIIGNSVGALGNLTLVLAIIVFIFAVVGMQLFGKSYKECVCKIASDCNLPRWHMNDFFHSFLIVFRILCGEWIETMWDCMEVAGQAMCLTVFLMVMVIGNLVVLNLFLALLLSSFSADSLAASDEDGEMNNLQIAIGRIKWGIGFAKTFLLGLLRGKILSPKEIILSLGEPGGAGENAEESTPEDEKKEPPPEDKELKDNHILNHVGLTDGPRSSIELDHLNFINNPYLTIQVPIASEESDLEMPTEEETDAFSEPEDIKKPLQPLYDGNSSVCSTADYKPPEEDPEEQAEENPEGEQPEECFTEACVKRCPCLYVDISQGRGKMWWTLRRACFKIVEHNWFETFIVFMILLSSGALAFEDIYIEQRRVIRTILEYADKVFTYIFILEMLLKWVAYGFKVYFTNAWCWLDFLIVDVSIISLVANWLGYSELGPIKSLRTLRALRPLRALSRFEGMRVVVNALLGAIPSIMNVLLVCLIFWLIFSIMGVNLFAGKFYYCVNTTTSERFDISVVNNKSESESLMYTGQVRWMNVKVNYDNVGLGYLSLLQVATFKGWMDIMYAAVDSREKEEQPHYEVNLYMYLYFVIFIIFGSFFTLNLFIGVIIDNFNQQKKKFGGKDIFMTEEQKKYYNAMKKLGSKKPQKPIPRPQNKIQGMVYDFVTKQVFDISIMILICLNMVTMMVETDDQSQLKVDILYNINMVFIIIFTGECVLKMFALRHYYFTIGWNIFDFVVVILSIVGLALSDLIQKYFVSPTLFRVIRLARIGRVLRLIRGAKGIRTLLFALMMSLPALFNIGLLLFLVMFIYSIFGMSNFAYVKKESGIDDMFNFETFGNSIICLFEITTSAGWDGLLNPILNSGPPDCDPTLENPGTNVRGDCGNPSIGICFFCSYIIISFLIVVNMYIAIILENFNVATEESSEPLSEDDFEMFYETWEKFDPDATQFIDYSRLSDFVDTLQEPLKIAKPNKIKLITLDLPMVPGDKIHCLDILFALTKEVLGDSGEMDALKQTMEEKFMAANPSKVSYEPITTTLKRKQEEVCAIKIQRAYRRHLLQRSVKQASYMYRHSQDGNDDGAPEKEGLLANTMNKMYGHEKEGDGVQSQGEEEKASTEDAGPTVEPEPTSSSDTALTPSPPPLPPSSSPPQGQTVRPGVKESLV
UniProt Q9UQD0, whole entry: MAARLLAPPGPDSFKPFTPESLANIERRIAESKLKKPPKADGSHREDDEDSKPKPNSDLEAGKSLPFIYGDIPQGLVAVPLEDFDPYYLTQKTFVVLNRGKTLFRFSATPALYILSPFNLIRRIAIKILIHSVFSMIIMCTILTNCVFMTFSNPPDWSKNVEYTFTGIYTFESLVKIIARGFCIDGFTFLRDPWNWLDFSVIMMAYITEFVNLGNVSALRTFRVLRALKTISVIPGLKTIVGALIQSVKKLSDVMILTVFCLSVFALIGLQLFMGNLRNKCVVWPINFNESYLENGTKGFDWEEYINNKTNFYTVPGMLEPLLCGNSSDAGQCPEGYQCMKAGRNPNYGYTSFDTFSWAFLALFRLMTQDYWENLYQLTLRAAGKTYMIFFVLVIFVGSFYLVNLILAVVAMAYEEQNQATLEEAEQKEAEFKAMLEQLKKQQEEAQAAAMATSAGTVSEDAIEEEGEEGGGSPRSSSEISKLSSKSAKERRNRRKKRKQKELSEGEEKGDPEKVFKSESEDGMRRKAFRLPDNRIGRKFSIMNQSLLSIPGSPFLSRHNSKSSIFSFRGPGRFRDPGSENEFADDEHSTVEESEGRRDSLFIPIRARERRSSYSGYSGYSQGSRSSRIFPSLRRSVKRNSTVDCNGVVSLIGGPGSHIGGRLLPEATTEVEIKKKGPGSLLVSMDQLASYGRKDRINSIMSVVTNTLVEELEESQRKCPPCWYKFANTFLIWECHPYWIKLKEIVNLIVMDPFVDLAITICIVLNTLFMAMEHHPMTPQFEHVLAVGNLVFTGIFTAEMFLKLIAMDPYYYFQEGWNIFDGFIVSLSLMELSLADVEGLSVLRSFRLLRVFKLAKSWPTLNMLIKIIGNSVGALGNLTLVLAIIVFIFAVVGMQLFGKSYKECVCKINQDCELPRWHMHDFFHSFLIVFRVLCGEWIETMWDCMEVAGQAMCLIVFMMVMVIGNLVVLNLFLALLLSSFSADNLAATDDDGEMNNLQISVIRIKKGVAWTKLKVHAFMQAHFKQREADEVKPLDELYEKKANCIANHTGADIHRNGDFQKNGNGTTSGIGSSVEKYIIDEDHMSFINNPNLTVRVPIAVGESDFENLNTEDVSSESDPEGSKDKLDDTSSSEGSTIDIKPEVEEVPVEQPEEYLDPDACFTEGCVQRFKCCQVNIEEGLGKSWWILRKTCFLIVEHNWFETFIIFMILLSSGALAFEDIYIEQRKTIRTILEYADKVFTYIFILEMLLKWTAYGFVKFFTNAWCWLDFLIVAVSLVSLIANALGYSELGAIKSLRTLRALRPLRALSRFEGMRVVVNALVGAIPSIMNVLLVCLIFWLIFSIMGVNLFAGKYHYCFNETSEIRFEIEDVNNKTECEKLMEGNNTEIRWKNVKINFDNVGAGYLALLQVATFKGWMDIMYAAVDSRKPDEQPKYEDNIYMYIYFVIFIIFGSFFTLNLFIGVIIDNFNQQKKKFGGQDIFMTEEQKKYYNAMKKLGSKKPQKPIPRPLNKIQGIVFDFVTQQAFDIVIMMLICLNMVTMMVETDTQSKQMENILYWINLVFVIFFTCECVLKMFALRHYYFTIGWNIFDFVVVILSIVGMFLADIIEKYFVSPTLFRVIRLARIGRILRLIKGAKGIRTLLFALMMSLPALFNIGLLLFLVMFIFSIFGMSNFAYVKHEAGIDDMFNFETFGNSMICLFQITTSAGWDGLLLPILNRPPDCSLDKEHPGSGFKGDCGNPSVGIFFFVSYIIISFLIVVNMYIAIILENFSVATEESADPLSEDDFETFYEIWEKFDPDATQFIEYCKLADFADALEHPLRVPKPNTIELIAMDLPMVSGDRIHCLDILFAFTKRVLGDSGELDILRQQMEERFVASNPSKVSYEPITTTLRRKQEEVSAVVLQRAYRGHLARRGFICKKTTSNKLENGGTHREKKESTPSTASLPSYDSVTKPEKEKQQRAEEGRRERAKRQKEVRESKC
UniProt Q14524, whole entry: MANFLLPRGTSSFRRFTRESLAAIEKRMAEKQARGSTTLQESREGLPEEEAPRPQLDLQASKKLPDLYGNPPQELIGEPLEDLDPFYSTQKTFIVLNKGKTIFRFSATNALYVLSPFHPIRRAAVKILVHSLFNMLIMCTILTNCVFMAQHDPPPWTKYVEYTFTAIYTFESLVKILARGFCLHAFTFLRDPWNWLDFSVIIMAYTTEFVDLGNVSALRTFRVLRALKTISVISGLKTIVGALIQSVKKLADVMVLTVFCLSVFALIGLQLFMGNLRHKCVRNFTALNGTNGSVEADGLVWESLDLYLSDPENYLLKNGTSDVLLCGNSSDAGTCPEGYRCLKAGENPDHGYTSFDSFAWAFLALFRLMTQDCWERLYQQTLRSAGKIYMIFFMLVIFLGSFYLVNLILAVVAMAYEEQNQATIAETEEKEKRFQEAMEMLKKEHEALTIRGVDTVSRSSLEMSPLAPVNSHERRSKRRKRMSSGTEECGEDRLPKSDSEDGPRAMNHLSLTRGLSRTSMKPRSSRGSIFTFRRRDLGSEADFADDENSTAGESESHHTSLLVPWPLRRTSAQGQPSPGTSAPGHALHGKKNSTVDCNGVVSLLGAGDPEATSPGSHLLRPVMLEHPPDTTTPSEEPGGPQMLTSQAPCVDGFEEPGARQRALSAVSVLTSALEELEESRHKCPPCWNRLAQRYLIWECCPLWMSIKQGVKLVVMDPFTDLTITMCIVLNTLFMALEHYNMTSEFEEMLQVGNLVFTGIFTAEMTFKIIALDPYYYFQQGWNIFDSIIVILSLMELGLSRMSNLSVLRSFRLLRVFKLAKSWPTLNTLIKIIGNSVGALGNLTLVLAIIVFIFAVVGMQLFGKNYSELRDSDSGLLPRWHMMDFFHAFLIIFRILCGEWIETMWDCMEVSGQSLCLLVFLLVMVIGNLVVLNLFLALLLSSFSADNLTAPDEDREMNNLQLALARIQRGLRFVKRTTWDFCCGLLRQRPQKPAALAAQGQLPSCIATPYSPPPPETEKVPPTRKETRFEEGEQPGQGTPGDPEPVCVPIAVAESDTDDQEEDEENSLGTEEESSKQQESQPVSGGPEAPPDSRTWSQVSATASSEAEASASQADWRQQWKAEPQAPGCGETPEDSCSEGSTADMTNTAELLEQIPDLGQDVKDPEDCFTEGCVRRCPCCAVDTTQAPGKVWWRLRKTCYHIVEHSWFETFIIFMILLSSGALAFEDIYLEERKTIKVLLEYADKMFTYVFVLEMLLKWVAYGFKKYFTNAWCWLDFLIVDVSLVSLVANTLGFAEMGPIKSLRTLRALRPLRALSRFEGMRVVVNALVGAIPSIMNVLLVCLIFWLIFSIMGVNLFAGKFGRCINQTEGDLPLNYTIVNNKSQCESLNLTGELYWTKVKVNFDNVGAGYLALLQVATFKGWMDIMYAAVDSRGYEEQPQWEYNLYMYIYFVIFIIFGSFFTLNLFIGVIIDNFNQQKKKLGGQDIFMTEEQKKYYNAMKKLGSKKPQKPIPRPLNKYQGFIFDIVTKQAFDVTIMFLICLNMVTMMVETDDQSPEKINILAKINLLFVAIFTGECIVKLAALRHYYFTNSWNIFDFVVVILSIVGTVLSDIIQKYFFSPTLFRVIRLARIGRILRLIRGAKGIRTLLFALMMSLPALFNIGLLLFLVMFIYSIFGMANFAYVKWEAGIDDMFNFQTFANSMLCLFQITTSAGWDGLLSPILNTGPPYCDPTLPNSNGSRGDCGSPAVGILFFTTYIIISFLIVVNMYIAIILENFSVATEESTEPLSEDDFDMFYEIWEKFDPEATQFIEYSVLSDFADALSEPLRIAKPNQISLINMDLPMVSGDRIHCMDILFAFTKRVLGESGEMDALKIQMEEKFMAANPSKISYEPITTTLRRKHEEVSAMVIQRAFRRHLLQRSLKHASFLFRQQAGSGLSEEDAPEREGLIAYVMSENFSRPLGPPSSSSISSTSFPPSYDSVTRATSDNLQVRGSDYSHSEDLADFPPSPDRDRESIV

How the values were obtained:
rNaV1.4 = target: T1, rNaV1.4 (Rattus norvegicus, UniProt P15390); experiment: Two-electrode voltage clamp, Nav1.4 in Xenopus laevis oocytes; format: cell-based; conditions: ex vivo, Hill fit, n ≥ 3, highest tested concentration 50 μM
T1 construct: expressed in transfected cells; host or cells: Xenopus laevis oocytes (cRNA injection)

hNaV1.6 = target: T2, hNaV1.6 (Homo sapiens, UniProt Q9UQD0); experiment: Two-electrode voltage clamp, Nav1.6 in Xenopus laevis oocytes; format: cell-based; conditions: two-electrode voltage clamp in Xenopus laevis oocytes, Hill fit, n ≥ 3; highest tested concentration 50 μM
T2 construct: expressed in transfected cells; host or cells: Xenopus laevis oocytes (cRNA injection)
Description: (§1) For the expression of NaV channels (hNav1.1, rNaV1.2, rNaV1.3, rNaV1.4, hNaV1.5, hNaV1.6, hNav1.7, and the insect channel BgNaV1) in Xenopus laevis oocytes, the linearized plasmids were transcribed using the T7 or SP6 mMESSAGE-mMACHINE transcription kit (Ambion, Carlsbad, CA, USA). The harvesting of stage V and VI oocytes from an anaesthetized female X. laevis frog was described previously. , Oocytes were injected with 50 nL of cRNA at a concentration of 1 ng/nL using a microinjector (Drummond Scientific, Broomall, PA, USA). The oocytes were incubated in a solution containing 96 mM NaCl, 2 mM KCl, 1.8 mM CaCl2, 2 mM MgCl2, and 5 mM HEPES (pH 7.4), supplemented with 50 mg/L gentamycin sulfate. Two-electrode voltage-clamp recordings were performed at room temperature (18–22 °C) using a Geneclamp 500 amplifier (Molecular Devices, Downingtown, PA, USA) controlled by a pClamp data acquisition system (Axon Instruments, Union City, CA, USA). Whole-cell currents from oocytes were recorded 1–4 days after injection. The bath solution composition was 96 mM NaCl, 2 mM KCl, 1.8 mM CaCl2, 2 mM MgCl2, and 5 mM HEPES (pH 7.4). Voltage and current electrodes were filled with 3 M KCl. The resistances of both electrodes were kept between 0.8 and 1.5 MΩ. The elicited Nav channel currents were filtered at 1 kHz and sampled at 20 kHz by using a four-pole low-pass Bessel filter. Leak subtraction was performed using a −P/4 protocol. For the electrophysiological analysis of toxins, a series of protocols was applied from a holding potential of −90 mV with a start-to-start interval of 0.2 Hz. Sodium current traces were evoked by 100 ms depolarizations to V max (the voltage corresponding to maximum sodium current in control conditions).
(§2) To assess the concentration–response relationships, data were fitted with the Hill equation: y = 100/[1 + (EC50/[toxin])^ h ], where y is the amplitude of the toxin-induced effect (y = I 30 ms/I peak where I 30 ms is the current value at 30 ms in the presence of toxin and I peak is the peak current amplitude in control conditions), EC50 is the toxin concentration at half-maximal efficacy, [toxin] is the toxin concentration, and h is the Hill coefficient. Potassium and calcium currents were evoked by a 500 ms depolarization to the voltage corresponding to the maximal activation of the channels in control conditions from a holding potential of −90 mV. Elicited currents were sampled at 1 kHz and filtered at 0.5 kHz. For nAChR experiments, the oocytes were clamped at a holding potential of −70 mV and continuously superfused with ND96 via gravity-fed tubes at 0.1–0.2 mL min^–1, with 5 min incubation times for the bath-applied peptides. ACh was applied via gravity-fed tubes until a peak current amplitude was obtained (1–3 s), with 1–2 min washout periods between applications. The nAChR were gated by a particular time duration pulse of ACh for the respective nAChR subtype at 2 mL min^–1. Data were sampled at 500 Hz and filtered at 200 Hz. ASIC1a currents were measured in ND96 solutions at a pH of 7.4 and 4.5, at a holding potential of −70 mV during 400 s, and the data were filtered at 20 Hz. EnaC currents were measured by clamping oocytes at a holding potential of −60 mV and perfusing with low- (1 mM) and high- (96 mM) sodium ND96. Opioid currents were measured by clamping the potential to −70 mV and changing the perfusion solution from ND96 to high-potassium (HK) solution composed of 96 mM KCl, 2 mM NaCl, 1 mM MgCl2, 1.8 mM CaCl2, and 5 mM HEPES, with a final pH of 7.5. The HK-evoked increase in inward K^+ currents represents a “basal” K^+ current (IK, basal). In the presence of HK, 0.2 μM morphine was applied to oocytes and then washed out by HK. TRPV1 and TRPA1 currents were continuously monitored in a perfusing ND96 solution, following a protocol at −90 mV for 400 s. The sampling rate was set at 100 Hz, and the signals were filtered at 20 Hz. One μM capsaicin and 10 μM capsazepine were used for TRPV1. […]

BgNav1 = experiment: Two-electrode voltage clamp, BgNav1 expressed in Xenopus laevis oocytes; format: cell-based, Blattella germanica; conditions: ex vivo, I30ms/Ipeak, Hill fit, n ≥ 3, highest tested concentration 50 μM
rNaV1.3 = target: T3, rNaV1.3 (Rattus norvegicus, UniProt P08104); experiment: Two-electrode voltage clamp, Nav1.3 in Xenopus laevis oocytes; format: cell-based; conditions: ex vivo, Hill fit, n ≥ 3, highest tested concentration 50 μM
T3 construct: expressed in transfected cells; host or cells: Xenopus laevis oocytes (cRNA injection)

hNaV1.5 = target: T4, hNaV1.5 (Homo sapiens, UniProt Q14524); experiment: Two-electrode voltage clamp, Nav1.5 in Xenopus laevis oocytes; format: cell-based; conditions: ex vivo, two-electrode voltage clamp in Xenopus laevis oocytes, Hill fit, n ≥ 3; highest tested concentration 50 μM
T4 construct: expressed in transfected cells; host or cells: Xenopus laevis oocytes (cRNA injection)
Description: as §1, §2

rNaV1.2 = target: T5, rNaV1.2 (Rattus norvegicus, UniProt P04775); experiment: Two-electrode voltage clamp, Nav1.2 in Xenopus laevis oocytes; format: cell-based; conditions: Hill fit, n ≥ 3, highest tested concentration 50 μM
T5 construct: expressed in transfected cells; host or cells: Xenopus laevis oocytes (cRNA injection)

| Compound | EC50 Nav1.4 (rNaV1.4) | EC50 Nav1.6 (hNaV1.6) | EC50 (BgNav1) | EC50 Nav1.3 (rNaV1.3) | EC50 Nav1.5 (hNaV1.5) | EC50 Nav1.2 (rNaV1.2) |
| --- | --- | --- | --- | --- | --- | --- |
| CC[C@H](C)[C@@H]1NC(=O)[C@@H](NC(=O)CN)CSSC[C@@H]2NC(=O)[C@@H]3CSSC[C@@H](C(=O)N[C@@H](CC(N)=O)C(=O)N4C[C@H](O)C[C@H]4C(=O)N4C[C@H](O)C[C@H]4C(=O)N[C@@H](CC(N)=O)C(=O)N[C@@H](CCC(N)=O)C(=O)O)NC(=O)[C@H](CCCCN)NC(=O)[C@H](Cc4ccccc4)NC(=O)[C@H](CC(N)=O)NC(=O)[C@H](Cc4c[nH]c5ccccc45)NC(=O)CNC(=O)[C@H](CSSC[C@H](NC(=O)[C@H](Cc4ccccc4)NC(=O)[C@H](CO)NC(=O)CNC(=O)[C@H]([C@@H](C)O)NC(=O)[C@H](C)NC1=O)C(=O)N[C@@H]([C@@H](C)O)C(=O)N[C@@H](CC(C)C)C(=O)N[C@@H](CO)C(=O)N[C@@H](CCCCN)C(=O)NCC(=O)N3)NC(=O)[C@H](C)NC(=O)[C@H](CCCCN)NC(=O)[C@H]([C@@H](C)O)NC2=O [Peptide N19A] | no detectable activity | inactive at the tested concentration | 19.2 ± 7.3 nM | no detectable activity | – | – |
| CC[C@H](C)[C@@H]1NC(=O)[C@@H](NC(=O)CN)CSSC[C@@H]2NC(=O)[C@@H]3CSSC[C@@H](C(=O)N[C@@H](CC(N)=O)C(=O)N4C[C@H](O)C[C@H]4C(=O)N4C[C@H](O)C[C@H]4C(=O)N[C@@H](CC(N)=O)C(=O)N[C@@H](CCC(N)=O)C(=O)O)NC(=O)[C@H](CCCCN)NC(=O)[C@H](Cc4ccccc4)NC(=O)[C@H](CC(N)=O)NC(=O)[C@H](Cc4c[nH]c5ccccc45)NC(=O)CNC(=O)[C@H](CSSC[C@H](NC(=O)[C@H](Cc4ccccc4)NC(=O)[C@H](CO)NC(=O)CNC(=O)[C@H](C)NC(=O)[C@H](C)NC1=O)C(=O)N[C@@H]([C@@H](C)O)C(=O)N[C@@H](CC(C)C)C(=O)N[C@@H](CO)C(=O)N[C@@H](CCCCN)C(=O)NCC(=O)N3)NC(=O)[C@H](CC(N)=O)NC(=O)[C@H](CCCCN)NC(=O)[C@H]([C@@H](C)O)NC2=O [Peptide T5A] | – | slightly higher activity | 45.6 ± 3.7 nM | – | in the same range as alpha-1 | activity in the same range as alpha-1 |
| CC[C@H](C)[C@@H]1NC(=O)[C@@H](NC(=O)CN)CSSC[C@@H]2NC(=O)[C@@H]3CSSC[C@@H](C(=O)N[C@@H](CC(N)=O)C(=O)N4C[C@H](O)C[C@H]4C(=O)N4C[C@H](O)C[C@H]4C(=O)N[C@@H](CC(N)=O)C(=O)N[C@@H](CCC(N)=O)C(=O)O)NC(=O)[C@H](CCCCN)NC(=O)[C@H](Cc4ccccc4)NC(=O)[C@H](CC(N)=O)NC(=O)[C@H](C)NC(=O)CNC(=O)[C@H](CSSC[C@H](NC(=O)[C@H](Cc4ccccc4)NC(=O)[C@H](CO)NC(=O)CNC(=O)[C@H]([C@@H](C)O)NC(=O)[C@H](C)NC1=O)C(=O)N[C@@H]([C@@H](C)O)C(=O)N[C@@H](CC(C)C)C(=O)N[C@@H](CO)C(=O)N[C@@H](CCCCN)C(=O)NCC(=O)N3)NC(=O)[C@H](CC(N)=O)NC(=O)[C@H](CCCCN)NC(=O)[C@H]([C@@H](C)O)NC2=O [Peptide W22A] | no detectable activity | inactive at the tested concentration | 2000 ± 188 nM | no detectable activity | no detectable activity; also recorded: inactive at the tested concentration | No activity |
